# Laboratory results published in patent publication US10905750B2, “GRP78 antagonist that block binding of receptor tyrosine kinase orphan receptors as immunotherapy anticancer agents” (CREATIVE BIOTHERAPEUTICS, LLC, priority 2017, dated 2021).
# Key:
# Assay type in all cases: cell-based
# [1] = tested on: D54 glioma cells; assay: Tumor cell proliferation assay 72 hours, D54; details: D54, 0.1 μg/ml
# Method: (§1) For the proliferation assay, cells were plated in 96 well plates at approximately 3000 cells per well overnight. The media was removed and fresh media with 1% FBS containing 10 μg/ml GRP78 was added along with the GRP78 antagonists. The plates were incubated for 72 hours at 37 C in 8% CO2. After 72 hours, cell number was determined with a WST-8 cell proliferation kit (Sigma). […] The only tumor cell line tested to not be inhibited by GRP78 antagonists was HT29, a colon carcinoma cell line. From our previous data above, we know U87 and D54 have ROR1 expressed on their cell surfaces.
# [2] = tested on: Calu 6 lung carcinoma cells; assay: Tumor cell proliferation assay 72 hours, Calu 6
# Method: as §1
# [3] = tested on: U87 glioma cells; assay: Tumor cell proliferation assay 72 hours, U87
# Method: as §1
# [4] = tested on: HT29 colon carcinoma cells; assay: Tumor cell proliferation assay 72 hours, HT29; details: HT29, 10 μg/ml
# Method: as §1
molecule,measurement,setting,value
"K5(3-89 Active Zone)frag SEQ ID NO:1: kringle 5 region of human plasminogen (amino acids 477-563 HPg), expressed in 293T cells (protein, Synthetic Peptide K5(3-89 Active Zone), kringle 5 region of human plasminogen (amino acids 477-563 HPg), expressed in 293T cells) SEEDCMFGNGKGYRGKRATTVTGTPCQDWAAQEPHRHSIFTPETNPRAGLEKNYCRNPDGDVGGPWCYTTNPRKLYDYCDVPQCAAPKS",% Proliferation Inhibition,[1],0 ± 5%
same,% Proliferation Inhibition,"[2]; Calu 6, 0.1 μg/ml",7 ± 2%
same,% Proliferation Inhibition,"[2]; Calu 6, 1 μg/ml",21 ± 3%
same,% Proliferation Inhibition,"[2]; Calu 6, 10 μg/ml",30 ± 4%
same,% Proliferation Inhibition,"[3]; U87, 0.1 μg/ml",0 ± 4%
same,% Proliferation Inhibition,"[3]; U87, 10 μg/ml",64 ± 8%
same,% Proliferation Inhibition,[4],0 ± 10%
